Values of other authors, collected in patent publication US20230076411A1, “LASSO PEPTIDES FOR TREATMENT OF CANCER” (Lassogen, Inc., priority 2020, published 2023).

The chains behind the UniProt entries cited, without tags or fusion partners. Residues count along the entry.
UniProt P25101, 21-427: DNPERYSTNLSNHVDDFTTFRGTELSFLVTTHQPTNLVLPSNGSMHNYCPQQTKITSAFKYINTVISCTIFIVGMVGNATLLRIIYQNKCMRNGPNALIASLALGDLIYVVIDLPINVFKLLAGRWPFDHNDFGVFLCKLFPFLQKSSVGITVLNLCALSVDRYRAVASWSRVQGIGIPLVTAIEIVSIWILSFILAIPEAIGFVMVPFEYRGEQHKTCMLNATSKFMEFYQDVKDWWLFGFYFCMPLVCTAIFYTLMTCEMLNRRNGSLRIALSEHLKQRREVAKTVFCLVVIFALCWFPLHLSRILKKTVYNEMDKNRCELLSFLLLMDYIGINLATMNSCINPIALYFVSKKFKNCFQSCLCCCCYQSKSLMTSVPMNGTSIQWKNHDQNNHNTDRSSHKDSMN

Target: ETAR receptors (Homo sapiens, UniProt P25101)
Settings: physiological concentrations; cited from earlier work

In the case of “ET-3: cognate endothelin ligand, 21-amino acid peptide”, the Kd is listed as about 6.5 nM.
